Values joined by “and” are separate entries in the source; they are usually repeats but may differ in a detail not shown here. Identical values can stand only once.
What was measured:
[1] = molecular target: electric-eel AChE (Electrophorus electricus, UniProt O42275); test: In vitro acetylcholinesterase inhibition; type: biochemical; details: pH 7.5, 25 °C, mean n > 3
[2] = test system: Artemia salina larvae; test: Brine shrimp lethality; details: A. salina nauplii; 95% confidence limits in parentheses

Amino acid sequences for entries named in this document (tags omitted). Residues count along the entry.
UniProt O42275, 24-633: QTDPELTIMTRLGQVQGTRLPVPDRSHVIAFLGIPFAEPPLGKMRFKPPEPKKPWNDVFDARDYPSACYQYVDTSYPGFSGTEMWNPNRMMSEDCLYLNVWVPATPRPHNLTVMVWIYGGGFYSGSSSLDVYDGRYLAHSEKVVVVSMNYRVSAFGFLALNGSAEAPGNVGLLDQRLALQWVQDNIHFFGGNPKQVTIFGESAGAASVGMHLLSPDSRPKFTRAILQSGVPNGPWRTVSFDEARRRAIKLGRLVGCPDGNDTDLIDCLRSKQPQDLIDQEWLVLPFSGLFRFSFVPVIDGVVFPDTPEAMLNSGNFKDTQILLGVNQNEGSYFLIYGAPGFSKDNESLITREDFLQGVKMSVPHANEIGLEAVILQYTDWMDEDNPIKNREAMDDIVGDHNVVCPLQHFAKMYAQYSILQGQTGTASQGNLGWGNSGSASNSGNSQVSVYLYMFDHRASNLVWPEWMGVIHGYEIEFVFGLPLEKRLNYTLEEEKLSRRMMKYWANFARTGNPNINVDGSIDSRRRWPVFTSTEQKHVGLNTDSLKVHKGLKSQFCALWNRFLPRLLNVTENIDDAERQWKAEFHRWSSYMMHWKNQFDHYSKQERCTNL

For Isoeugenol [Compound 8], the “IC50 (µg/mL) ± SD, AChE inhibition” value [1] was 29.78 ± 0.26 µg/mL and the “LC50 (µg/mL), toxicity in Artemia salina larvae test” value [2] was 2033.1–6303.8 µg/mL and 2033.1 (1980.3–2086.0) µg/mL.

Reference: PMC6864136 (Saudi Journal of Biological Sciences, 2018)
